Assay results from US7745604B2, “Upstream control elements of the proopiomelanocortin gene and their use” (Oregon Health & Science University, priority 2001, dated 2010).

Chains of the proteins cited; added tags and fusions are not shown.
UniProt P42866, whole entry: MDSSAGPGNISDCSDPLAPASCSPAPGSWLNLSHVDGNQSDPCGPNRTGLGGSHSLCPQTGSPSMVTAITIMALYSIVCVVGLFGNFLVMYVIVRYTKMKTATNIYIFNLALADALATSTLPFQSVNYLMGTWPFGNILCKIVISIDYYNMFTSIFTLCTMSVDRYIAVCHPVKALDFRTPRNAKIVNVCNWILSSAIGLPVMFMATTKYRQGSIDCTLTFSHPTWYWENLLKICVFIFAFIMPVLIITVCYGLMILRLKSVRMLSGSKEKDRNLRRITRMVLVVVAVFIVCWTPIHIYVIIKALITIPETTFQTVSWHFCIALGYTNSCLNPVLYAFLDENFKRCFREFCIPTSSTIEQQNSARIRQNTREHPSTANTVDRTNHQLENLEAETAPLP

Molecular target: MOP-Rs on POMC neurons (Mus musculus, UniProt P42866)

## CTAP
  effect on current induced by Met-Enk in POMC cells: Met-Enk elicited no current; also recorded: completely prevented the current induced by Met-Enk

“Also recorded” adds a separate entry of the source.
